Source: PubChem BioAssay (NCI)
Some of these compounds have results that are not shown, active ones among them.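 Grown in 96-well plates, cells were treated for 48 hours with each compound at five concentrations. Insufficient inhibition: endpoint recorded as highest concentration tested. Abbreviation: GI50, concentration required for 50% inhibition of growth. TGI denotes the concentration required for complete inhibition of growth.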

How the values were obtained:
Assay in all cases: NCI anticancer screen, dose series, 48 h
[1] = tested on: HCT-116 colon
[2] = tested on: NCI-H23 lung
[3] = tested on: NCI-H522 lung
[4] = tested on: UACC-257 melanoma
[5] = tested on: K-562 leukemia
[6] = tested on: U251 CNS
[7] = tested on: T-47D breast
[8] = tested on: ACHN renal
[9] = tested on: NCI-H460 lung
[10] = tested on: NCI-H226 lung
[11] = tested on: MCF7 breast
[12] = tested on: OVCAR-5 ovarian
[13] = tested on: MOLT-4 leukemia
[14] = tested on: RPMI-8226 leukemia
[15] = tested on: SF-268 CNS
[16] = tested on: A549 NSCLC
[17] = tested on: UACC-62 melanoma
[18] = tested on: LOX IMVI melanoma
[19] = tested on: HT29 colon
[20] = tested on: HL-60(TB) leukemia
[21] = tested on: SNB-19 CNS
[22] = tested on: KM12 colon
[23] = tested on: RXF 393 renal
[24] = tested on: OVCAR-3 ovarian
[25] = tested on: SF-295 CNS
[26] = tested on: CAKI-1 renal
[27] = tested on: SK-MEL-5 melanoma
[28] = tested on: SF-539 CNS
[29] = tested on: HCT-15 colon
[30] = tested on: MALME-3M melanoma
[31] = tested on: MDA-N
[32] = tested on: NCI/ADR-RES ovarian
[33] = tested on: M14 melanoma
[34] = tested on: HS 578T breast
[35] = tested on: SR leukemia
[36] = tested on: COLO 205 colon
[37] = tested on: SW-620 colon
[38] = tested on: HOP-92 NSCLC
[39] = tested on: IGROV1 ovarian
[40] = tested on: A498 renal
[41] = tested on: SK-MEL-28 melanoma
[42] = tested on: EKVX NSCLC
[43] = tested on: CCRF-CEM leukemia
[44] = tested on: SN12C renal
[45] = tested on: TK-10 renal
[46] = tested on: HOP-62 NSCLC
[47] = tested on: MDA-MB-231 breast
[48] = tested on: SK-MEL-2 melanoma
[49] = tested on: MDA-MB-435
[50] = tested on: OVCAR-8 ovarian
[51] = tested on: 786-0 renal
[52] = tested on: UO-31 renal
[53] = tested on: DU-145 prostate
[54] = tested on: PC-3 prostate
[55] = tested on: HCC-2998 colon
[56] = tested on: SK-OV-3 ovarian
[57] = tested on: NCI-H322M lung
[58] = tested on: OVCAR-4 ovarian
[59] = tested on: SNB-75 CNS

SMILES: CCC#CC(O)(C(=O)OC1CN2CCC1CC2)C1CCCC1 (stereo not drawn)
- GI50 [1]: > 100 µM
- TGI [1]: > 100 µM
- GI50 [2]: > 100 µM
- TGI [2]: > 100 µM
- GI50 [3]: > 100 µM
- TGI [3]: > 100 µM
- GI50 [4]: > 100 µM
- TGI [4]: > 100 µM
- GI50 [5]: > 100 µM
- TGI [5]: > 100 µM
- GI50 [6]: > 100 µM
- TGI [6]: > 100 µM
- GI50 [7]: > 100 µM
- TGI [7]: > 100 µM
- GI50 [8]: > 100 µM
- TGI [8]: > 100 µM
- GI50 [9]: > 100 µM
- TGI [9]: > 100 µM
- GI50 [10]: > 100 µM
- TGI [10]: > 100 µM
- GI50 [11]: > 100 µM
- TGI [11]: > 100 µM
- GI50 [12]: > 100 µM
- TGI [12]: > 100 µM
- GI50 [13]: > 100 µM
- TGI [13]: > 100 µM
- GI50 [14]: > 100 µM
- TGI [14]: > 100 µM
- GI50 [15]: > 100 µM
- TGI [15]: > 100 µM
- GI50 [16]: > 100 µM
- TGI [16]: > 100 µM
- GI50 [17]: > 100 µM
- TGI [17]: > 100 µM
- GI50 [18]: > 100 µM
- TGI [18]: > 100 µM
- GI50 [19]: > 100 µM
- TGI [19]: > 100 µM
- GI50 [20]: > 100 µM
- TGI [20]: > 100 µM
- GI50 [21]: > 100 µM
- TGI [21]: > 100 µM
- GI50 [22]: > 100 µM
- TGI [22]: > 100 µM
- GI50 [23]: > 100 µM
- TGI [23]: > 100 µM
- GI50 [24]: > 100 µM
- TGI [24]: > 100 µM
- GI50 [25]: > 100 µM
- TGI [25]: > 100 µM
- GI50 [26]: > 100 µM
- TGI [26]: > 100 µM
- GI50 [27]: > 100 µM
- TGI [27]: > 100 µM
- GI50 [28]: > 100 µM
- TGI [28]: > 100 µM
- GI50 [29]: > 100 µM
- TGI [29]: > 100 µM
- GI50 [30]: > 100 µM
- TGI [30]: > 100 µM
- GI50 [31]: > 100 µM
- TGI [31]: > 100 µM
- GI50 [32]: > 100 µM
- TGI [32]: > 100 µM
- GI50 [33]: > 100 µM
- TGI [33]: > 100 µM
- GI50 [34]: > 100 µM
- TGI [34]: > 100 µM
- GI50 [35]: > 100 µM
- TGI [35]: > 100 µM
- GI50 [36]: > 100 µM
- TGI [36]: > 100 µM
- GI50 [37]: > 100 µM
- TGI [37]: > 100 µM
- GI50 [38]: 73.6 µM
- TGI [38]: > 100 µM
- GI50 [39]: > 100 µM
- TGI [39]: > 100 µM
- GI50 [40]: > 100 µM
- TGI [40]: > 100 µM
- GI50 [41]: > 100 µM
- TGI [41]: > 100 µM
- GI50 [42]: > 100 µM
- TGI [42]: > 100 µM
- GI50 [43]: > 100 µM
- TGI [43]: > 100 µM
- GI50 [44]: > 100 µM
- TGI [44]: > 100 µM
- GI50 [45]: > 100 µM
- TGI [45]: > 100 µM
- GI50 [46]: > 100 µM
- TGI [46]: > 100 µM
- GI50 [47]: > 100 µM
- TGI [47]: > 100 µM
- GI50 [48]: > 100 µM
- TGI [48]: > 100 µM
- GI50 [49]: > 100 µM
- TGI [49]: > 100 µM
- GI50 [50]: > 100 µM
- TGI [50]: > 100 µM
- GI50 [51]: > 100 µM
- TGI [51]: > 100 µM
- GI50 [52]: > 100 µM
- TGI [52]: > 100 µM
- GI50 [53]: > 100 µM
- TGI [53]: > 100 µM
- GI50 [54]: > 100 µM
- TGI [54]: > 100 µM
- GI50 [55]: > 100 µM
- TGI [55]: > 100 µM
- GI50 [56]: > 100 µM
- TGI [56]: > 100 µM
- GI50 [57]: > 100 µM
- TGI [57]: > 100 µM
- GI50 [58]: > 100 µM
- TGI [58]: > 100 µM
- GI50 [59]: > 100 µM
- TGI [59]: > 100 µM
